{"source": "patent US20150018396A1", "about": "“PREVENTION AND TREATMENT OF RESPIRATORY INFECTION WITH PEROXISOME PROLIFERATOR ACTIVATOR RECEPTOR DELTA AGONIST” (PRESIDENT AND FELLOWS OF HARVARD COLLEGE, priority 2012, published 2015)", "test_system": "S. pneumoniae", "assay": "In vivo bacteria clearance assay (bacterial counts in bronchoalveolar lavage fluid)", "design": "species or system mouse", "settings": "wt mice treated for 3 days, lavage fluid 24 hours post-infection", "protocol": "Mice were gavaged with GW501516 (4 mg/kg/day) daily for 3 days prior to and every other day after infection. Mice were infected with 5×10^5 CFU of S. pneumoniae. […] Twenty-four hours post-infection, lavage fluid was isolated and analyzed for bacterial counts. […] Mice were gavaged with GW501516 for three days. […] Mice were gavaged with GW501516 for 3 days. Alveolar macrophages were isolated and ROS was determined using FcOxyburst. Data are presented as mean±SEM. *p<0.05.\nPpar-δ floxed animals were generated as described previously^33,34. Ppar-δ mice were crossed to lysozyme cre mice (Jackson laboratory) to generate Ppar-δ^mye−/− mice. Ppar-δ^fl/fl mice were used as wt controls. All mice were maintained on a C57BL/6 background. Mice used for survival studies in FIG. 5 were C57BL/6 mice purchased from Jackson Laboratory. Bone marrow from CSS-17 mice was provided by Dr. Colleen Croniger (Case Western Reserve University). For in vivo killing assays, mice were anesthetized with a ketamine/xylazine solution and infected intranasally with 10^6 CFU S. pneumoniae. 24 hours post infection, mice were sacrificed with isofluorane and Balf was extracted^30. For survival experiments with Ppar-δ^mye−/− mice, animals were infected intranasally with 10^5 CFU S. pneumoniae. C57BL/6 mice used for survival experiments with ligand treatment were infected with 5×10^5 CFU. […]"}
{"smiles": "Cc1cc(SCc2sc(-c3ccc(C(F)(F)F)cc3)nc2C)ccc1OCC(=O)O", "note": "[GW501516]", "values": [{"measurement": "bacteria counts in Balf", "result": "substantially lower"}]}
